In patent US12514865B2, “Biomaterial-based antigen free vaccine and the use thereof” (President and Fellows of Harvard College, priority 2019, dated 2026):

Experiment: In vitro encapsulation and release of biomolecules from the cryogel vaccine
Format: physicochemical
Description: To determine the incorporation efficiency and release kinetics of Cpg-odn, GM-CSF and antigen from cryogel vaccines, gels were incubated in lml of sterile PBS at 37° C. with shaking. Media was replaced periodically. Micro-BCA (Pierce Biotechnology) was used to quantify total protein content. GM-CSF and Cpg-odn released in the supernatant were detected by ELISA (Invitrogen) and OliGreen assay (Invitrogen), respectively. The amount of antigen was determined by subtracting total protein content from the amount of GM-CSF quantified by ELISA.

## RMFPNAPYL [WT-1126-134]
100 μg loaded
  amount released over a period of 10 days after the burst release: Approximately 4 μg
antigen, in vitro, from cryogel
  burst release over the first two days: 3.3%
In MA-PEG/MA-alginate vaccine cryogel
  encapsulation efficiency: 75%
